One substance from patent publication US20230256110A1, “COMBINATION OF ANTIBODY-DRUG CONJUGATE AND ATM INHIBITOR” (AstraZeneca UK Limited, priority 2020, published 2023) can be followed below.

Common to all, as to assay type: cell-based
Assay [1] concerns NCI-N87 cell line. In words: Growth inhibition by total cell (nuclear) count, 96-well imaging. Particulars: monotherapy; NCI-N87, gastric, HER2 High; 4 to 8 days. The protocol:
(§1) Cells grown in their respective conditions were plated in 96-well plates at optimal density to allow linear proliferation for the duration of the assay (4 to 8 days; duration of treatment is dependent on the growth rate of each cell line). Immediately after plating, the cells were dosed with the indicated compounds for a total volume of 200 μL/well and placed in the incubator. Combinations were conducted as a 6×8 concentration response matrix for each combination. At the endpoint, the cells were fixed in 2% PFA for 20 minutes at room temperature. In order to obtain the number of cells at the start of treatment, one additional plate was used for each experiment and fixed after cells attached. The cells were then permeabilised in 0.5% Triton-X100 in PBS for 10 minutes. After a PBS wash, the cells were blocked in 5% FBS in PBS 1 h at RT and incubated with primary antibodies in 5% FBS+0.05% triton overnight at 4° C. After 3 washes in PBS cells were incubated with secondary antibodies in 5% FBS+0.05% triton with Hoechst33258 for 1 h at room temperature. After 3 washes in PBS, the cells were scanned with a Cellinsight instrument with a 10×objective and 9 fields/well. Images were analysed using Columbus for cell count based on nuclear Hoechst staining and nuclear intensity of other biomarkers investigated. The total cell count/well was used to calculate the relative growth in each well compared to solvent control. […] The mean/well of the sum of the nuclear intensity of the IF biomarkers was also expressed relative to solvent control.

Assay [2] relates to DU145 cell line. The description is as above. The conditions noted are these: monotherapy; DU145, prostate, HER2 Low; 4 to 8 days. The protocol: as §1
The test system of assay [3] is MDA-MB-468 cell line. The assay is described as above. The conditions noted are these: monotherapy; MDA-MB-468, breast, HER2 Low; 4 to 8 days. The protocol: as §1
Assay [4] concerns DU145-SLFN11 KO (CRISPR-Cas9 gene knockout of SLFN11). The description is as above. The conditions noted are these: monotherapy, prostate, HER2 Low, 4 to 8 days. The protocol:
as §1

The subject of assay [5] is SK-OV-3 cell line. Described as above. Particulars: monotherapy; SK-OV-3, ovarian, HER2 Moderate; 4 to 8 days. The protocol:
as §1

The test system of assay [6] is JIMT-1 cell line. The description is as above. Particulars: monotherapy; JIMT-1, breast, HER2 Expressed; 4 to 8 days. The protocol:
as §1

In assay [7] the test system is KPL4 cell line. Described as above. The conditions noted are these: monotherapy; KPL4, breast, HER2 High; 4 to 8 days. The protocol: as §1
The subject of assay [8] is KAP1 pSer824, γH2AX. Nature of the assay: Immunofluorescence biomarkers of ATM activation and DNA damage in KPL4 cells. Particulars: high-HER2 KPL4. The protocol: Cells grown in their respective conditions were plated in 96-well plates at optimal density to allow linear proliferation for the duration of the assay (4 to 8 days; duration of treatment is dependent on the growth rate of each cell line). Immediately after plating, the cells were dosed with the indicated compounds for a total volume of 200 μL/well and placed in the incubator. Combinations were conducted as a 6×8 concentration response matrix for each combination. At the endpoint, the cells were fixed in 2% PFA for 20 minutes at room temperature. In order to obtain the number of cells at the start of treatment, one additional plate was used for each experiment and fixed after cells attached. The cells were then permeabilised in 0.5% Triton-X100 in PBS for 10 minutes. After a PBS wash, the cells were blocked in 5% FBS in PBS 1 h at RT and incubated with primary antibodies in 5% FBS+0.05% triton overnight at 4° C. After 3 washes in PBS cells were incubated with secondary antibodies in 5% FBS+0.05% triton with Hoechst33258 for 1 h at room temperature. […] Images were analysed using Columbus for cell count based on nuclear Hoechst staining and nuclear intensity of other biomarkers investigated. […] To calculate the synergy scores, the growth inhibition data were analysed using Combenefit software (Di Veroli G Y et al., Bioinformatics 2016, 32(18), 2866-8). […]

Assay [9] relates to ATM signaling. Nature of the assay: Inhibition of ATM signaling, antibody blots of whole-cell extracts. The conditions noted are these: Her2-high NCI-N87 and KPL4; DS-8201 at 30 μg/mL or exatecan mesylate alone. The protocol:
Gastric cancer NCI-N87 and breast carcinoma KPL4 cell lines were cultured in RPMI 1640 supplemented with 10% FCS in a humidified incubator at 37° C. with 5% CO2. Cells were plated in 6-well plates at optimal density to allow linear proliferation for the duration of the assay. […] 7 h, 24 h or 48 h after dosing, whole-cell extracts were obtained by lysis in 50 mM Tris-HCl pH 7.5, 2% SDS containing protease and phosphatase inhibitors. Lysates were boiled for 5 minutes at 95° C. Protein concentration was measured using a Nanodrop at […] and 50 μg of lysate were loaded in 4-12% Bis Tris gels. Proteins were transferred using iblot2. Primary antibodies (see Table 7) were incubated overnight at 4° C. in 3% milk TBS-tween 0.05% and HRP-conjugated secondary antibodies for 1 h at room temperature. Blots were imaged using a G-box.

Take “DS-8201: anti-HER2 antibody-drug conjugate, exatecan-derivative drug-linker conjugated to anti-HER2 antibody via thioether bond; DAR 7.7 or 7.8”: the GI50 – broadly, the concentration that inhibits growth by half – stood at 0.019 µg/mL in assay [1]; 18.361 µg/mL in assay [2]; 3.367 µg/mL in assay [3]; 17.08 µg/mL in assay [4]; 4.674 µg/mL in assay [5]; 22.609 µg/mL in assay [6]. Also, in [7], the GI50 was found to be 0.044 µg/mL. The “biomarkers of ATM (KAP1 pSer824) activation and DNA strand breaks (yH2AX)” value in assay [8] is “induced in a concentration dependent manner”. The “activation of the ATM pathway (pATM-S1981, pChk2-T68, pKap1-S824)” value in [9] is “induced activation of the ATM pathway”.
